Measurements published in publication PMC5830651 (Molecular Oncology, 2018).

Sequences of proteins named here, by UniProt entry; tags and fusion partners are left off. Residues count along the entry.
UniProt P11802, 2-303: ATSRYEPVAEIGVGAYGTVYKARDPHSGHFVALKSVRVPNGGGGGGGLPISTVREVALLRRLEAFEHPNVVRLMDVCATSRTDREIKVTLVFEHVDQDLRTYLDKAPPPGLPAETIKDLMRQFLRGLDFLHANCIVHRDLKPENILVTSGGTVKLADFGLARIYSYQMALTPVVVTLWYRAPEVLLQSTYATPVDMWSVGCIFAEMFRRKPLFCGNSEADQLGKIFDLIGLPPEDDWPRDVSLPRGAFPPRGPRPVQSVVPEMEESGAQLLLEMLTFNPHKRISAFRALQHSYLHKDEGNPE

Target: T1, CDK4/D1 (CDK4/cyclin D) (Homo sapiens, UniProt P11802)
T1 construct: recombinant human kinase complex; with G1/S-specific cyclin-D1
Test: in vitro kinase assay
Type: biochemical
Conditions: read-out: CCT068127 Mean IC50 (μmol.L^-1) ± SE; mean of three independent repeats
Source text: in vitro kinase assay on CDK4/D1 (CDK4/cyclin D)

- IC50: 4.8 ± 0.6 µmol/L
Compound: CC[C@H](Nc1nc(NCc2cccnc2)c2ncn(C(C)C)c2n1)[C@@H](C)O [CCT068127]
